Values of other authors, collected in patent US11759495B2, “Upregulation of therapeutic T regulatory cells and suppression of suicidal ideations in response to inflammation by administration of nutraceutical compositions alone or combined with minocycline” (Therapeutic Solutions International, Inc., priority 2020, dated 2023).

Columns and labels:
ulcerative colitis (UC) = conditions: cited from earlier work
iNOS = conditions: 5 and 10 microM for 6-24 hr, vs macrophages without EGCG; cited from earlier work
LPS-induced ARDS = conditions: 10 mg/kg ip; cited from earlier work
[1] = 50 and 100 mg/kg/day, vs MD group

For epigallocatechin-3-gallate [EGCG], the “disease activity index (DAI)” value (ulcerative colitis (UC); [1]) is given as “decreased”, the “spleen index (SI)” value (ulcerative colitis (UC); [1]) is given as “decreased” and the “splenic regulatory T-cell (Treg)/T helper 17 cell (Th17) ratio” value (ulcerative colitis (UC); mouse, in vivo) is given as “regulate”. For the same substance, the “iNOS activity in soluble extracts” value (iNOS) was “significantly lower” and the “histological lesions, wet-to-dry weight ratios, and myeloperoxidase (MPO) activity” value (LPS-induced ARDS) was “reduced”.
